Here are results for one compound from the OPERA property sets (Mansouri et al. 2018).

One may read the logP as a log measure of how a compound divides between an organic and an aqueous phase. Low values mean a more hydrophilic compound, high ones a more lipophilic compound. In turn, `Cc1c([N+](=O)[O-])no[n+]1[O-]` had a logP of 0.78.
